In patent publication US20100144868A1, “Novel Neuroprotective Compounds and Uses Thereof” (Ramot At Aviv University Ltd., priority 2005, published 2010):

With “2,2-fullerenyl-malonic acid bis(adamantan-1-ylcarbamate-diethyleneglycol) ester [Compound 16]” the Maximal aqueous concentration (0.1% DMSO content in final aqueous solution) was 0.07 10^−5 M, the Maximal aqueous concentration (0.5% DMSO content in final aqueous solution) was 0.35 10^−5 M and the Maximal aqueous concentration (1.0% DMSO content in final aqueous solution) was 1.40 10^−5 M.

Like-named read-outs stand apart in the source and are kept apart here.
